Test results as given in ChEMBL document CHEMBL1221220, “Transport and signaling via the amino acid binding site of the yeast Gap1 amino acid transceptor” (Nat Chem Biol, 2009).

Biological target: T1, General amino-acid permease GAP1 (Saccharomyces cerevisiae) (UniProt P19145)
T1 sequence (whole entry): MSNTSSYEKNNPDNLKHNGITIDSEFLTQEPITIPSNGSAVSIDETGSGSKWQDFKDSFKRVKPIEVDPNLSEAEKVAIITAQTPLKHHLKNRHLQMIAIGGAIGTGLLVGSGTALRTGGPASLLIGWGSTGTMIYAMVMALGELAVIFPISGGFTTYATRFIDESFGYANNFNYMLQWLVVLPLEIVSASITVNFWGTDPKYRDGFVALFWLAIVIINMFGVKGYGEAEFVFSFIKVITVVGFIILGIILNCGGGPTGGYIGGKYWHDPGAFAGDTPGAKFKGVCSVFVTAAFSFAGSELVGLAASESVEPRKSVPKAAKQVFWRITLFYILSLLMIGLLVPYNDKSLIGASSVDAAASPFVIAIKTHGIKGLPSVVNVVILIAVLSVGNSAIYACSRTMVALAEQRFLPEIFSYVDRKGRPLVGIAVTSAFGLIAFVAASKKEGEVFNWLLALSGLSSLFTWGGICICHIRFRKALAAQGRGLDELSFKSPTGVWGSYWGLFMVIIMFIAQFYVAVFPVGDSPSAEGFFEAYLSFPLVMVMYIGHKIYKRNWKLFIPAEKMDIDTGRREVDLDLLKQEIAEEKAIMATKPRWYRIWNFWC
Details: sigma1278b, at 5 mM
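Note: amino acid uptake through Gap1 in nitrogen-starved wild-type yeast cells, measured after 60 s and expressed relative to L-citrulline.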

inhibition: < 15%
SMILES: NCCCC[C@H](NC(=O)[C@H](CCCCN)NC(=O)[C@@H](N)CCCCN)C(=O)O
